These results are taken from ChEMBL document CHEMBL1153990, “Exploring the PI3K alpha and gamma binding sites with 2,6-disubstituted isonicotinic derivatives” (Bioorg Med Chem Lett, 2009).

By UniProt entry, the sequences of proteins in these tests, tags left out. Where a name states a change or a piece, a line headed by the entry shows the natural chain unless it says otherwise.
UniProt P48736: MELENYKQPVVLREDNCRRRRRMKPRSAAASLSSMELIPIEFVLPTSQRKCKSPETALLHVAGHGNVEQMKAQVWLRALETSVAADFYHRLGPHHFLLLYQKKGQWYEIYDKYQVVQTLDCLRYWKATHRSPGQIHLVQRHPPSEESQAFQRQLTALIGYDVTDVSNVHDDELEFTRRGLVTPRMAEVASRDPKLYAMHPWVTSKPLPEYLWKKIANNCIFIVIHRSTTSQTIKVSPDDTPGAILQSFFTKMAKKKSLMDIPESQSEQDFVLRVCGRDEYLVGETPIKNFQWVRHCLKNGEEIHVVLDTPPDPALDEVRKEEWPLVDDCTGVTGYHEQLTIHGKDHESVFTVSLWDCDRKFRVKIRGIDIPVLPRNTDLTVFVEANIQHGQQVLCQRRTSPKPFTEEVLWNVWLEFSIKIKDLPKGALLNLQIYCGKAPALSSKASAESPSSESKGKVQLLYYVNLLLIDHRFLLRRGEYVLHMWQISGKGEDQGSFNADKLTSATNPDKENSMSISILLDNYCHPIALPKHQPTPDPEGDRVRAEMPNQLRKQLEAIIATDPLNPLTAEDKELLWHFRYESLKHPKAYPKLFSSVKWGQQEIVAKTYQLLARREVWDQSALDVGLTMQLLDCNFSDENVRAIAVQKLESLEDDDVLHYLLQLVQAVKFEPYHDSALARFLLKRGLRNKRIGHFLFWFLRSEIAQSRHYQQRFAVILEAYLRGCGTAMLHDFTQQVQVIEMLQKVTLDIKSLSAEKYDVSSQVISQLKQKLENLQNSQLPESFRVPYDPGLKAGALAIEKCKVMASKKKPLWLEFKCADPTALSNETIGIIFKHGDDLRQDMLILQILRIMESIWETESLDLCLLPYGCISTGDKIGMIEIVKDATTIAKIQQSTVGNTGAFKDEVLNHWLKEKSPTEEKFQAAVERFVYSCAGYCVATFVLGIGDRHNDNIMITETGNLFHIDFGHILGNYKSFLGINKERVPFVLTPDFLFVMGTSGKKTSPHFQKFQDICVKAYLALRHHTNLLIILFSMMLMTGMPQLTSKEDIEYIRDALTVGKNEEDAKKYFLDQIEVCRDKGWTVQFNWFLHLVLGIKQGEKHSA

Structures are written as SMILES.

In this test the target is Phosphatidylinositol 4,5-bisphosphate 3-kinase catalytic subunit gamma isoform (Homo sapiens, UniProt P48736). The test can be described thus: Inhibition of PI3Kgamma by luminescent kinase glo assay.

By IC50 is commonly meant the concentration that gives 50% inhibition. Low values mean inhibition by little substance, high ones a need for much substance. Consider `O=c1cc(N2CCOCC2)oc2c(-c3ccccc3)cccc12` [LY-294002], for which the IC50 worked out at 1.2 µM.
